{"source": "patent US20230201369A1", "about": "(THE TEXAS A&M UNIVERSITY SYSTEM, priority 2020, published 2023)", "key": {"[1]": {"test_system": "morphine-induced locomotion", "settings": "morphine 10 mg/kg s.c."}, "morphine-dependent mice": {"test_system": "morphine-dependent mice", "settings": "2 hours after 20 mg/kg morphine on day 7"}}, "note": "Like-named read-outs stand apart in the source and are kept apart here.", "data": [{"smiles": "CN1CC[C@]23c4c5ccc(O)c4O[C@H]2[C@@H](O)C=C[C@H]3[C@H]1C5", "note": "[morphine]", "values": [{"measurement": "locomotor activity, minute 30 of BL vs minutes 56-60 post-morphine", "setting": "[1]", "value": "increased locomotor activity"}]}, {"smiles": "C=CCN1CC[C@]23c4c5ccc(O)c4O[C@H]2C(=O)CC[C@@]3(O)[C@H]1C5", "note": "[naloxone, 17-Allyl-4,5α-epoxy-3,14-dihydroxymorphinan-6-one]", "values": [{"measurement": "number of jumps in 30 minutes vs control group", "setting": "morphine-dependent mice; 1 mg/kg i.p.", "value": "jumped significantly more than the control group"}, {"measurement": "number of jumps in 30 minutes vs control group", "setting": "morphine-dependent mice; 5 mg/kg i.p.", "value": "jumped significantly more than the control group"}]}]}
